Patent US20250115669A1, “FGFR1/KLB Targeting Agonistic Antigen-Binding Proteins and Conjugates Thereof with GLP-1R Agonistic Peptides” (SANOFI, priority 2020, published 2025)

Target: T1, human beta-Klotho (Homo sapiens, UniProt Q86Z14)
T1 sequence (Q86Z14 1-1044): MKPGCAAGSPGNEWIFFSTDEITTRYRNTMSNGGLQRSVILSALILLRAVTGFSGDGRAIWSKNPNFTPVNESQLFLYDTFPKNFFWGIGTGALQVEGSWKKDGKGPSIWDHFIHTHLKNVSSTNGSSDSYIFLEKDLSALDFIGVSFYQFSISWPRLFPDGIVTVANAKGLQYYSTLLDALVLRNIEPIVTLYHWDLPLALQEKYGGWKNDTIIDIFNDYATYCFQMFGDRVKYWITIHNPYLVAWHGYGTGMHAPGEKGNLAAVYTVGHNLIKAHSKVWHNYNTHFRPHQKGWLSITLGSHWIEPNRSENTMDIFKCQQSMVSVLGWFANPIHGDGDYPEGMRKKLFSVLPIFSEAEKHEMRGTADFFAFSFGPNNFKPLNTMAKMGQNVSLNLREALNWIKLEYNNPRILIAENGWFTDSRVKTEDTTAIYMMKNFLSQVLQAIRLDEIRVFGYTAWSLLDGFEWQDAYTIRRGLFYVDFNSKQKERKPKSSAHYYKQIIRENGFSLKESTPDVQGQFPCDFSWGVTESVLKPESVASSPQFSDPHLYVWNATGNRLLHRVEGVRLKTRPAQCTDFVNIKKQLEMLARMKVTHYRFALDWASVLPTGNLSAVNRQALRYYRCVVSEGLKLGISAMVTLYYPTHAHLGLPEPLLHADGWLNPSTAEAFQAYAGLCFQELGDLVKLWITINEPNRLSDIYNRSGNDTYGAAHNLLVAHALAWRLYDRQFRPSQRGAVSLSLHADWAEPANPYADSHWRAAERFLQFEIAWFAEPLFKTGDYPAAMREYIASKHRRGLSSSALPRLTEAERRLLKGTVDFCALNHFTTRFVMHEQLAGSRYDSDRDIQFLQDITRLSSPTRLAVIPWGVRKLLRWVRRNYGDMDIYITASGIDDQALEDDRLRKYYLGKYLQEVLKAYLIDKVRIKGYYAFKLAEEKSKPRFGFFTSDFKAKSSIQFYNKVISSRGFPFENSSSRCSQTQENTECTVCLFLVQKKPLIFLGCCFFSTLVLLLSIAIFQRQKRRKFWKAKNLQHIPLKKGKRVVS
Assay: SPR binding affinity and kinetics to human beta-Klotho (Biacore 8K, anti-human Fc capture)
Settings: 1:1 binding model, read-out: KD human KLB
Method: Binding affinity and kinetics were measured on a Biacore 8K instrument (GE Healthcare). For the affinity capture of the diluted mAb sample, an anti-human Fc antibody (human antibody capture kit, GE Healthcare) was immobilized on all eight channels of a series S CM5 sensor chip (GE Healthcare) to approximately 10.000 RU. The anti-beta-Klotho antibodies were diluted into HBS-EP+ assay buffer (GE Healthcare) to 0.04 μg/mL. The antibodies were injected in the sample compartment, whereas the reference compartment was used without captured antibody. […] For the antigen inject the flow rate was adjusted to 60 μL/min with an association time of 180 sec and a dissociation time of 1800 sec. The maximum binding signal of beta-Klotho was in the range of 30 RU. […] Binding kinetics data were evaluated with a 1:1 binding model using the Biacore 8K Evaluation Software version 1.1.1.7442 (GE Healthcare).
For interaction analysis with human beta-klotho, mAbs were captured via an anti-human Fc antibody immobilized on a series S CM5 sensor chip (human antibody capture kit, GE Healthcare). […] Binding kinetics data were evaluated with a 1:1 binding model using the Biacore 8K Evaluation Software version 1.1.1.7442 (GE Healthcare). […] Binding kinetics data were evaluated with a 1:1 binding model using the Biacore 8K Evaluation Software version 1.1.1.7442 (GE Healthcare). […]

- Kd: 0.026 nM
Substance: 16H7: anti FGFR1c/KLB monoclonal antibody of WO 2011/071783, IgG2 backbone; HC SEQ ID NO: 1, LC SEQ ID NO: 2 [Ab 16H7]
